{
  "sequences": {"note": "By UniProt entry, the sequences of proteins in these tests, tags left out.", "UniProt P10635, whole entry": "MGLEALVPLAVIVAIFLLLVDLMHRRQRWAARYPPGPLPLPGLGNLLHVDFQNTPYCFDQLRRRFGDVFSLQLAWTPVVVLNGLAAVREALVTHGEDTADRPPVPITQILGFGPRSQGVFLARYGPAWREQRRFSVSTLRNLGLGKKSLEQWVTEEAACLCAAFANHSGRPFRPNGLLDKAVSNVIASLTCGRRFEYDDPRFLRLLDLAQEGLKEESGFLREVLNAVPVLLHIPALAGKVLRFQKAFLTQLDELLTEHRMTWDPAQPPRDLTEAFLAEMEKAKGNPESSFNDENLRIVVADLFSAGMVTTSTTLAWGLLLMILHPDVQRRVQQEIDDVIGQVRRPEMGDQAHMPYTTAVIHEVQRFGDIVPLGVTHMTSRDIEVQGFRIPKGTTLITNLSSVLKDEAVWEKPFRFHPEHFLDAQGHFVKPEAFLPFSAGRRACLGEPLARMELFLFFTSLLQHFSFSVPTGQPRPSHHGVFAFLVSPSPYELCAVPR"},
  "source": "patent US6130342A",
  "about": "“CYP2D fluorescent assay reagents” (Gentest Corporation, priority 1999, dated 2000)",
  "target": "CYP2D6 (Homo sapiens, UniProt P10635)",
  "assay": "High throughput CYP2D6 inhibition screen",
  "details": "series of CYP2D6 selective inhibitors; CEC vs. compounds Ia and Ib as substrate",
  "data": [
    {"smiles": "CC[N+](C)(CC)CCc1c(C(F)(F)F)c2ccc(OC)cc2oc1=O", "note": "[Compound Ib, 3-[2-(N,N-diethyl-N-methylammonium)ethyl]-7-methoxy-4-trifluoromethylcoumarin iodide]", "values": [
      {"measurement": "correlation of inhibitor IC50 values with those using CEC", "result": "highly correlated"}
    ]},
    {"smiles": "CC[N+](C)(CC)CCc1c(C)c2ccc(OC)cc2oc1=O", "note": "[Compound Ia, 3-[2-(N,N-diethyl-N-methylammonium)ethyl]-7-methoxy-4-methylcoumarin]", "values": [
      {"measurement": "correlation of inhibitor IC50 values with those using CEC", "result": "highly correlated"}
    ]}
  ]
}
